In ChEMBL document CHEMBL1144657, “Discovery of heterobicyclic templates for novel metabotropic glutamate receptor subtype 5 antagonists” (Bioorg Med Chem Lett, 2007):
pKi: −log10 of the molar value.

Amino acid sequences for entries named in this document (tags omitted).
UniProt P31424, whole entry: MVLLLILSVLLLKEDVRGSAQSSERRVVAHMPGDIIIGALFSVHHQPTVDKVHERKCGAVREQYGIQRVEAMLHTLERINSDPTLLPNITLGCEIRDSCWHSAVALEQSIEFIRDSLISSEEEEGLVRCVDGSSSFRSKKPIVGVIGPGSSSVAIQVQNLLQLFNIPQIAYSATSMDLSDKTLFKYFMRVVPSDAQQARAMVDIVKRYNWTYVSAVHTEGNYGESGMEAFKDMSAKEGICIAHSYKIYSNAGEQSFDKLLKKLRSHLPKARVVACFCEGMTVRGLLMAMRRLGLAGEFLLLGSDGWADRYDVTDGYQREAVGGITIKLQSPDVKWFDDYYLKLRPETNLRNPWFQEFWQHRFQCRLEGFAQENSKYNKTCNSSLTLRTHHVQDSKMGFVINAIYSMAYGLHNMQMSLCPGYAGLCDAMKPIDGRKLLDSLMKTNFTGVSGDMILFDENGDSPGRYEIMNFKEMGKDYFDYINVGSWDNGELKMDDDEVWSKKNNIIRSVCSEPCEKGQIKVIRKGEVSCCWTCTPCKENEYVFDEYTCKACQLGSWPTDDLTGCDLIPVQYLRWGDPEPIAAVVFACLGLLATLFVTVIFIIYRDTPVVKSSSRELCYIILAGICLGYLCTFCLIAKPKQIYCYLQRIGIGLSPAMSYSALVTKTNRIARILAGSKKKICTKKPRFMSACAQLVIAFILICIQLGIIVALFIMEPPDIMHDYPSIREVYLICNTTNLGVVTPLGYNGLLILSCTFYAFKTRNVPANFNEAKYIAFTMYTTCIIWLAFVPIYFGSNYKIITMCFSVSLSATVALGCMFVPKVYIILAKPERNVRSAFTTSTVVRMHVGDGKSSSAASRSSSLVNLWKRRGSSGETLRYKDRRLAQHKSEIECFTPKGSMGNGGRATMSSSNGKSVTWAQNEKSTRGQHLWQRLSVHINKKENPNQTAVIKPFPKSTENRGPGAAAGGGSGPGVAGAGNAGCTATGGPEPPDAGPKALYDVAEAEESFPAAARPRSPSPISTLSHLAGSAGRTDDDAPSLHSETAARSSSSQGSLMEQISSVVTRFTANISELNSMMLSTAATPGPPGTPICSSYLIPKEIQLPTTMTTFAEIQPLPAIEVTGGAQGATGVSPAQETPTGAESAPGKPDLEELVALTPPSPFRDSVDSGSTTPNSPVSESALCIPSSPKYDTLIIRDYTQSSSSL

Biological target: Metabotropic glutamate receptor 5 (Rattus norvegicus, UniProt P31424)
Test: Displacement of [3H]MPEP from mGluR5 in rat brain membrane
Format: cell membranes
Outline: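 Binding was measured by the NIMH Psychoactive Drug Screening Program in rat brain membranes, with [3H]MPEP as the mGluR5 radioligand. Single-concentration screens are reported as percent inhibition of [3H]MPEP binding at 10 μM, and some compounds were also tested at 100 μM. For selected compounds, IC50 was determined using a previously published protocol.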

pKi: 7.70
Compound: Cc1cccc(C#Cc2ccccc2)n1
